Reference: ChEMBL document CHEMBL1136809, “Synthesis and structure-affinity relationships of novel N-(1-ethyl-4-methylhexahydro-1,4-diazepin-6-yl)pyridine-3-carboxamides with potent serotonin 5-HT3 and dopamine D2 receptor antagonistic activity” (J Med Chem, 2003)
pIC50, pKi: −log10 of the molar value.

By UniProt entry, the sequences of proteins in these tests, tags left out. Where a name states a change or a piece, a line headed by the entry shows the natural chain unless it says otherwise.
UniProt P61169, whole entry: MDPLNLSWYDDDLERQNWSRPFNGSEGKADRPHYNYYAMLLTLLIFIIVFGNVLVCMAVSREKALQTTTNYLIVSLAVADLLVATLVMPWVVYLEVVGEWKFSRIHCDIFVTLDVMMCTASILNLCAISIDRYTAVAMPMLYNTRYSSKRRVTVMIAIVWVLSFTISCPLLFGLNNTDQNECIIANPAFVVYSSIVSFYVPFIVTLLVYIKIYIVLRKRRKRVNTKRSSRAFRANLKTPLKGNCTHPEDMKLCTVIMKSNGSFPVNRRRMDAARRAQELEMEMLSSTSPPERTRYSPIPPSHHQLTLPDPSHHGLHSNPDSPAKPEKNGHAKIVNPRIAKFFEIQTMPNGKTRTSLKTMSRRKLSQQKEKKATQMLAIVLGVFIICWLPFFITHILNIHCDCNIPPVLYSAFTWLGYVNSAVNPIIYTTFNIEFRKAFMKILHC
UniProt P35563, whole entry: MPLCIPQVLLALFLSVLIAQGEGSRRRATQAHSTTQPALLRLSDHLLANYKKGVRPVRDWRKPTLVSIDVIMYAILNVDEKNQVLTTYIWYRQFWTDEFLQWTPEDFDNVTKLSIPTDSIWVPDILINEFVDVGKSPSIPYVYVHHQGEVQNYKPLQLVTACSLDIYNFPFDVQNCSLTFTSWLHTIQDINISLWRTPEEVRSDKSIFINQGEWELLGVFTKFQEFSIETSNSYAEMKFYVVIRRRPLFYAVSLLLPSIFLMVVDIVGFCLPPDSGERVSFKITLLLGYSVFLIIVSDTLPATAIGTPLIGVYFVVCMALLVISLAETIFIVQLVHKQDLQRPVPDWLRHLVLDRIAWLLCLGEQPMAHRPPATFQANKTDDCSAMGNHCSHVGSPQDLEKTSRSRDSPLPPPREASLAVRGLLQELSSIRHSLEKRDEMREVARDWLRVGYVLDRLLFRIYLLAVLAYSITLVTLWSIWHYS
UniProt Q9JJ16: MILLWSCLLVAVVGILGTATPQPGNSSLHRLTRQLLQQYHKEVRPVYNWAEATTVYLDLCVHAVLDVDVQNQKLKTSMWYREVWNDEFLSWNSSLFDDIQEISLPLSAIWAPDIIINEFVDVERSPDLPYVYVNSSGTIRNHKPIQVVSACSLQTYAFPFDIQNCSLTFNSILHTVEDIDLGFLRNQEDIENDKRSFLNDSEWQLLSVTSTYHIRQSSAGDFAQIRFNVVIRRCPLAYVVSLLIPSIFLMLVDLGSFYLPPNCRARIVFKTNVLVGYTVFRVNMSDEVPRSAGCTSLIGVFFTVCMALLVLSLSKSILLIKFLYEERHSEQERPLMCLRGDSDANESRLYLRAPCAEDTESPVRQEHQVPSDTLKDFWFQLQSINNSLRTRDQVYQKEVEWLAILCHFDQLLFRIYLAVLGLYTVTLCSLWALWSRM

Columns and labels:
D(2) dopamine receptor [1] = target: T1, D(2) dopamine receptor (Rattus norvegicus, UniProt P61169); test: Affinity towards Dopamine receptor D2 in rat striatum using [3H]spiperone as radioligand; type: tissue-based
D(2) dopamine receptor [2] = target: T1, D(2) dopamine receptor; test: Concentration of compound required to inhibit the binding of radioligand [3H]spiperone to Dopamine receptor D2 in rat brain synaptic membrane; type: cell membranes
[3] = target: Serotonin 3 (5-HT3) receptor (Rattus norvegicus, UniProt P35563+Q9JJ16); test: Inhibition of [3H]GR-65630 binding to rat cortical membrane serotonin 5-hydroxytryptamine 3 receptor

Row | pKi (D(2) dopamine receptor [1]) | pIC50 (D(2) dopamine receptor [2]) | pKi [3] | SMILES
1 | 6.52 | 6.35 | – | CCN(CC)CCNC(=O)c1cc(Cl)c(N)cc1OC [METOCLOPRAMIDE]
2 | – | – | 7.02 | COc1cc(N)c(Cl)cc1C(=O)NC1CCN(CCCOc2ccc(F)cc2)CC1OC (stereo not drawn) [CISAPRIDE]
